Binding of CDR-mutated scFvs to a peptide of the spike HR2 region

The target is the same throughout: PDVDLGDISGINAS, from the HR2 region of SARS-CoV-2 spike.

Parent scFv Ab-95: VH joined to VL by the linker GGGGSGGGGSGGGGS. Changes lie in the light chain CDRs alone.
VH: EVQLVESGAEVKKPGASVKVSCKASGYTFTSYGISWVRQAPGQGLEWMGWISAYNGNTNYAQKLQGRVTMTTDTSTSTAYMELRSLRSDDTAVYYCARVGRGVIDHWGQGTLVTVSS
VL: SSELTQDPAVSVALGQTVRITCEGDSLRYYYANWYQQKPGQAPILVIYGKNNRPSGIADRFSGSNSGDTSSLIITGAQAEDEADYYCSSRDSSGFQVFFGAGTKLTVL

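The parent was found by panning a naive human phage display library on the peptide. Library AAYL52 holds single substitutions and randomly drawn double and triple substitutions in the CDRs. The assay is AlphaSeq: two haploid yeast populations carry antibody and antigen on their surface. Pairs that bind mate more often; barcode pairs of the diploids are counted by sequencing. A regression on co-assayed BCL2-family reference pairs converts the normalised counts of each replicate to an apparent Kd. There are three technical replicates.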

The parent's light chain CDRs are EGDSLRYYYAN, GKNNRPS, SSRDSSGFQVF; each variant's own CDRs replace them letter for letter.
Kd is apparent (estimated from mating counts) and averaged on the log scale over replicates with a signal. Smaller is tighter.
A pair that was not seen in any replicate is written "nd"; this usually means weak binding, but a binder can also be missed.
As a blank, each scFv also met three strains without target: over library AAYL52, 28% of these pairings were detected, typically at 8.2 µM and seldom below 800 nM.
For reference, the parent read 200 nM as the reference entry and 180 nM as a member of this library.

{"CDR-L1": "EGDGLRYYYMN", "CDR-L2": "GINNRPS", "CDR-L3": "SSRDSSGFQVF", "apparent Kd": "6.0 µM", "seen in": "3/3"}
{"CDR-L1": "EGDSLRYRYAN", "CDR-L2": "GKNFRPS", "CDR-L3": "CSRDSSGFQVF", "apparent Kd": "350 nM", "seen in": "3/3"}
{"CDR-L1": "EIDSLRYYYAN", "CDR-L2": "GGNNRPS", "CDR-L3": "SSRDSGGFQVF", "apparent Kd": "4.0 µM", "seen in": "3/3"}
{"CDR-L1": "EGDSLRYYYAQ", "CDR-L2": "GKNNRPS", "CDR-L3": "SDRDSSVFQVF", "apparent Kd": "nd", "seen in": "0/3"}
{"CDR-L1": "WGDDLRYYYAN", "CDR-L2": "GKNNRPS", "CDR-L3": "SSRDSSGFQVW", "apparent Kd": "910 nM", "seen in": "1/3"}
{"CDR-L1": "EGDSLRYYYAN", "CDR-L2": "GKNNYPS", "CDR-L3": "SSRDSSGFWMF", "apparent Kd": "16 µM", "seen in": "2/3"}
{"CDR-L1": "EGDSLRYYYAN", "CDR-L2": "GKNNRPS", "CDR-L3": "SPRDSSGFQVK", "apparent Kd": "1.4 µM", "seen in": "3/3"}
{"CDR-L1": "EGDSLRYYYAN", "CDR-L2": "GKNNRPS", "CDR-L3": "SSRDVSGFQNF", "apparent Kd": "500 nM", "seen in": "3/3"}
{"CDR-L1": "EKDSLRYYYAN", "CDR-L2": "GDNNRPS", "CDR-L3": "PSRDSSGFQVF", "apparent Kd": "nd", "seen in": "0/3"}
{"CDR-L1": "EGDSLVYYYAN", "CDR-L2": "GMNNAPS", "CDR-L3": "SSRDSSGFQVF", "apparent Kd": "7.0 µM", "seen in": "3/3"}
{"CDR-L1": "EGDLLRYYYAN", "CDR-L2": "GKNNTKS", "CDR-L3": "SSRDSSGFQVF", "apparent Kd": "13 µM", "seen in": "3/3"}
{"CDR-L1": "EGDSLRYYYAN", "CDR-L2": "GKNNRPS", "CDR-L3": "SKDDSAGFQVF", "apparent Kd": "54 nM", "seen in": "3/3"}
{"CDR-L1": "RGDSLRYYYAM", "CDR-L2": "GKNQRPS", "CDR-L3": "SSRDSSGFQVF", "apparent Kd": "1.9 µM", "seen in": "3/3"}
{"CDR-L1": "EGDSLRYGYAN", "CDR-L2": "GKNNRPS", "CDR-L3": "SNRDSSGFNVF", "apparent Kd": "8.2 nM", "seen in": "3/3"}
{"CDR-L1": "EGDSLRYYYAK", "CDR-L2": "TKNNRPS", "CDR-L3": "SSRDSSGCQVF", "apparent Kd": "nd", "seen in": "0/3"}
{"CDR-L1": "VGDSLRYYYAN", "CDR-L2": "GKQNRPS", "CDR-L3": "SSRDSSGFQAF", "apparent Kd": "230 nM", "seen in": "1/3"}
{"CDR-L1": "EQDSLRYRYAN", "CDR-L2": "GKNNRPS", "CDR-L3": "SSRCSSGFQVF", "apparent Kd": "15 µM", "seen in": "1/3"}
{"CDR-L1": "EGDSLRYYYAN", "CDR-L2": "EKNNRPS", "CDR-L3": "LSRDSSGFQVF", "apparent Kd": "4.0 µM", "seen in": "2/3"}
{"CDR-L1": "PGSSLRYYYAN", "CDR-L2": "GKNNRPS", "CDR-L3": "SSRDSSGFLVF", "apparent Kd": "3.0 µM", "seen in": "1/3"}
{"CDR-L1": "ERDSLRYYYAN", "CDR-L2": "GKNNRPI", "CDR-L3": "SSRDSPGFQVF", "apparent Kd": "6.0 µM", "seen in": "3/3"}
{"CDR-L1": "HGDSLRYYYAN", "CDR-L2": "GKNNRPS", "CDR-L3": "LSRDSSFFQVF", "apparent Kd": "nd", "seen in": "0/3"}
{"CDR-L1": "EGESLRYYYAN", "CDR-L2": "GKNNRPS", "CDR-L3": "SSRDSIGLQVF", "apparent Kd": "230 nM", "seen in": "3/3"}
{"CDR-L1": "EGDSLRYYYAV", "CDR-L2": "GMNNRPS", "CDR-L3": "SSRDSSGFCVF", "apparent Kd": "nd", "seen in": "0/3"}
{"CDR-L1": "EGDSLRYYYAN", "CDR-L2": "GKYNRLS", "CDR-L3": "SSRLSSGFQVF", "apparent Kd": "7.3 µM", "seen in": "1/3"}
{"CDR-L1": "EGDSLRYYYAN", "CDR-L2": "GKNNRPS", "CDR-L3": "SARDSSGFQNF", "apparent Kd": "340 nM", "seen in": "3/3"}
{"CDR-L1": "EGDDLRYYYAH", "CDR-L2": "GKNNYPS", "CDR-L3": "SSRDSSGFQVF", "apparent Kd": "nd", "seen in": "0/3"}

Top 2 of the variants detected in all replicates, tightest first:

{"CDR-L1": "EGDSLRYGYAN", "CDR-L2": "GKNNRPS", "CDR-L3": "SNRDSSGFNVF", "apparent Kd": "8.2 nM", "seen in": "3/3"}
{"CDR-L1": "EGDSLRYYYAN", "CDR-L2": "GKNNRPS", "CDR-L3": "SKDDSAGFQVF", "apparent Kd": "54 nM", "seen in": "3/3"}

Data: MIT Lincoln Laboratory AlphaSeq set, Engelhart et al. 2022, doi:10.1038/s41597-022-01779-4, as distributed in FLAb.